Assay results published in article PMC10535824, “Tryptophan Substitution in CJ-15,208 (cyclo[Phe-D-Pro-Phe-Trp]) Introduces δ-Opioid Receptor Antagonism, Preventing Antinociceptive Tolerance and Stress-Induced Reinstatement of Extinguished Cocaine-Conditioned Place Preference” (Pharmaceuticals, 2023).

System: C57BL/6J mice
Assay: acute antinociceptive tolerance (dosing at 0 and 8 h)
Settings: i.c.v.
Experimental: The degree of tolerance was calculated from the shift in ED50 value from the singly to repeatedly treated condition.

## CN1CC[C@]23c4c5ccc(O)c4O[C@H]2[C@@H](O)C=C[C@H]3[C@H]1C5 [Morphine, reference compound]
  Fold-Shift, Naïve ED50 vs. Second ED50: 7.70
  rightward shift in the dose–response curve of the second dose: 7.7 fold
